Experimental data from patent publication US7888393B2, “Transdermal compositions” (Microdermis Corporation, priority 2002, dated 2011).

Assay: pH of quaternary compounds, fatty acids and their reaction products in water (calibrated pH meter)
Format: physicochemical
Conditions: for pH of Quat and Stearic Acid: 70-75 °C, stearic acid 40 g, ten minutes after acid addition; for pH of quaternary compound: mixed with distilled water (2,000 g), before heating
Procedure: Example 2 was repeated employing the fatty acids; Conjugated Linoleic Acid (CLA); eicosapentaenoic acid (EPA); and gamma linolenic acid (GLA), were all dissolved in water and the pH of the resulting solutions were measured with a calibrated pH meter.
Three solutions of DDAC (188.2 g) in distilled water (2,000 g) were contacted with masses of CLA, EPA and GLA, such that the molar ratio of DDAC to each of the aforementioned fatty acids was 1:1 at a temperature of 70° C. to 75° C. and after 10 minutes the pH of the reaction products of each of these products was measured.
Merquat 550 is a trademark owned by Calgon, Inc. its manufacturer, for a proprietary cationic polymer having a repeating unit molecular weight of 680 and an overall molecular weight of about 10,000. The pH of these first transdermal compositions were measured. […] Ten minutes after acid addition, the pH of the product composition were measured.

Row | Substance | pH of Quat and Stearic Acid | pH of quaternary compound
1 | monomethyl benzethonium chloride [MMBC] | 2.32 | 4.47
2 | dimethyl benzethonium chloride [DMBC] | 3.01 | 5.02
